Measured values reported in patent US12564559B2, “Combinations of LSD1 inhibitors for use in the treatment of solid tumors” (Oryzon Genomics, S.A., priority 2016, dated 2026).

Experiments:
[1] = test system: SCLC and NSCLC cell lines; assay: Synergy Score (Loewe additivity, ATPLite growth inhibition) of combinations with the LSD1 inhibitor, Example 2 / Table 4; conditions: 2nd API combined with (trans)-N1-((1R,2S)-2-phenylcyclopropyl)cyclohexane-1,4-diamine; for Synergy Scores in NSCLC A549: NSCLC cell line A549; for Synergy Scores in NSCLC CAL-12T: NSCLC cell line CAL-12T; for Synergy Scores in NSCLC NCI-H441: NSCLC cell line NCI-H441; for Synergy Scores in SCLC NCI-H187: SCLC cell line NCI-H187; for Synergy Scores in SCLC NCI-H446: SCLC cell line NCI-H446; for Synergy Scores in SCLC NCI-H510: SCLC cell line NCI-H510; for Synergy Scores in SCLC NCI-H1048: SCLC cell line NCI-H1048; for Synergy Scores in SCLC NCI-H1417: SCLC cell line NCI-H1417; for Synergy Scores in SCLC NCI-H1876: SCLC cell line NCI-H1876; for Synergy Scores in SCLC SBC-5: SCLC cell line SBC-5
[2] = test system: SCLC cell lines; assay: In vitro Synergy Score of combinations with the LSD1 inhibitor in expanded panel of SCLC cell lines, Example 3 / Table 5; type: cell-based, human

| Compound | Synergy Scores in NSCLC A549 [1] | Synergy Scores in NSCLC CAL-12T [1] | Synergy Scores in NSCLC NCI-H441 [1] | Synergy Scores in SCLC NCI-H187 [1] | Synergy Scores in SCLC NCI-H446 [1] | Synergy Scores in SCLC NCI-H510 [1] | Synergy Scores in SCLC NCI-H1048 [1] | Synergy Scores in SCLC NCI-H1417 [1] | Synergy Scores in SCLC NCI-H1876 [1] | Synergy Scores in SCLC SBC-5 [1] | further results |
| --- | --- | --- | --- | --- | --- | --- | --- | --- | --- | --- | --- |
| O=C(O)CCNc1cc(N2CCc3ccccc3CC2)nc(-c2ccccn2)n1 [GSK-J1, N-[2-(2-Pyridinyl)-6-(1,2,4,5-tetrahydro-3H-3-benzazepin-3-yl)-4-pyrimidinyl]-β-alanine] | 0.07 | 0.01 | 0.09 | 2.14 | 0.03 | 3.80 | 0.23 | 2.26 | 10.21 | 0.85 |  |
| LY-2603618 | 0.20 | 1.46 | 2.22 | 6.47 | 0.37 |  | 1.47 | 1.05 | 11.98 | 0.87 |  |
| COc1ccc(C2=N[C@@H](c3ccc(Cl)cc3)[C@@H](c3ccc(Cl)cc3)N2C(=O)N2CCNC(=O)C2)c(OC(C)C)c1 [Nutlin-3A, 2-Piperazinone,4-[[(4S,5R)-4,5-bis(4-chlorophenyl)-4,5-dihydro-2-[4-methoxy-2-(1-methylethoxy)phenyl]-1H-imidazol-1-yl]carbonyl]-] | 0.04 | 0.11 | 0.36 | 1.56 | 0.36 | 1.63 | 0.29 | 2.56 | 7.24 | 0.48 |  |
| COc1cccc2c1C(=O)c1c(O)c3c(c(O)c1C2=O)C[C@@](O)(C(=O)CO)C[C@@H]3O[C@H]1C[C@H](N)[C@H](O)[C@H](C)O1 [Doxorubicin, (7S,9S)-7-[(2R,4S,5S,6S)-4-amino-5-hydroxy-6-methyloxan-2-yl]oxy-6,9,11-trihydroxy-9-(2-hydroxyacetyl)-4-methoxy-8,10-dihydro-7H-tetracene-5,12-dione] | 0.45 |  | 6.86 | 6.85 | 4.93 | 15.96 | 3.13 | 33.43 | 3.74 |  |  |
| O=C(NC(NC(=S)Nc1ccc(F)c([N+](=O)[O-])c1)C(Cl)(Cl)Cl)C(c1ccccc1)c1ccccc1 (stereo not drawn) [CGK 733, α-Phenyl-N-[2,2,2-trichloro-1-[[[(4-fluoro-3-nitrophenyl)amino]thioxomethyl]amino]ethyl]benzeneacetamide] | 3.07 | 0.39 | 0.27 | 3.35 | 5.16 | 3.03 | 1.21 | 0.91 | 4.59 | 0.78 |  |
| Cc1sc2c(c1C)C(c1ccc(Cl)cc1)=N[C@@H](CC(=O)OC(C)(C)C)c1nnc(C)n1-2 [(+)-JQ1, (S)-tert-butyl 2-(4-(4-chlorophenyl)-2,3,9-trimethyl-6H-thieno[3,2-f][1,2,4]triazolo[4,3-a][1,4]diazepin-6-yl)acetate] | 0.07 | 0.51 | 0.12 | 11.29 | 1.74 | 11.88 | 0.68 | 39.59 | 18.65 | 0.15 | Synergy Scores of SCLC cell lines DMS-114 ([2]; SCLC cell line DMS-114, 2nd API combined with (trans)-N1-((1R,2S)-2-phenylcyclopropyl)cyclohexane-1,4-diamine, scores >6.4 considered significant): 1.55; Synergy Scores of SCLC cell lines NCI-H69 ([2]; SCLC cell line NCI-H69, 2nd API combined with (trans)-N1-((1R,2S)-2-phenylcyclopropyl)cyclohexane-1,4-diamine, scores >6.4 considered significant): 6.44; Synergy Scores of SCLC cell lines NCI-H187 ([2]; SCLC cell line NCI-H187, 2nd API combined with (trans)-N1-((1R,2S)-2-phenylcyclopropyl)cyclohexane-1,4-diamine, scores >6.4 considered significant): 2.83; Synergy Scores of SCLC cell lines NCI-H446 ([2]; SCLC cell line NCI-H446, 2nd API combined with (trans)-N1-((1R,2S)-2-phenylcyclopropyl)cyclohexane-1,4-diamine, scores >6.4 considered significant): 4.03; Synergy Scores of SCLC cell lines NCI-H510 ([2]; SCLC cell line NCI-H510, 2nd API combined with (trans)-N1-((1R,2S)-2-phenylcyclopropyl)cyclohexane-1,4-diamine, scores >6.4 considered significant): 24.21; Synergy Scores of SCLC cell lines NCI-H526 ([2]; SCLC cell line NCI-H526, 2nd API combined with (trans)-N1-((1R,2S)-2-phenylcyclopropyl)cyclohexane-1,4-diamine, scores >6.4 considered significant): 8.06; Synergy Scores of SCLC cell lines NCI-H1417 ([2]; SCLC cell line NCI-H1417, 2nd API combined with (trans)-N1-((1R,2S)-2-phenylcyclopropyl)cyclohexane-1,4-diamine, scores >6.4 considered significant): 7.87; Synergy Scores of SCLC cell lines NCI-H1876 ([2]; SCLC cell line NCI-H1876, 2nd API combined with (trans)-N1-((1R,2S)-2-phenylcyclopropyl)cyclohexane-1,4-diamine, scores >6.4 considered significant): 9.15; Synergy Scores of SCLC cell lines NCI-H2171 ([2]; SCLC cell line NCI-H2171, 2nd API combined with (trans)-N1-((1R,2S)-2-phenylcyclopropyl)cyclohexane-1,4-diamine, scores >6.4 considered significant): 8.69; Synergy Scores of SCLC cell lines SHP-77 ([2]; SCLC cell line SHP-77, 2nd API combined with (trans)-N1-((1R,2S)-2-phenylcyclopropyl)cyclohexane-1,4-diamine, scores >6.4 considered significant): 0.45; synergy with LSD1 inhibition ([2]; combination with (trans)-N1-((1R,2S)-2-phenylcyclopropyl)cyclohexane-1,4-diamine, expanded panel of SCLC cell lines): highly synergistic |
| Nc1ccn([C@@H]2O[C@H](CO)[C@@H](O)C2(F)F)c(=O)n1 [Gemcitabine, 4-amino-1-(2-deoxy-2,2-difluoro-β-D-erythro-pentofuranosyl)pyrimidin-2(1H)-on] |  | 0.58 | 6.78 | 19.43 |  | 23.37 |  | 15.18 | 2.74 | 0.33 |  |
| CCN1CCN(c2ccc(Nc3cc(N(C)C(=O)Nc4c(Cl)c(OC)cc(OC)c4Cl)ncn3)cc2)CC1 [BGJ398, 3-(2,6-dichloro-3,5-dimethoxyphenyl)-1-(6-((4-(4-ethylpiperazin-1-yl)phenyl)amino)pyrimidin-4-yl)-1-methylurea] | 0.16 | 0.49 | 0.17 | 9.26 | 17.33 | 4.42 | 9.55 | 9.66 | 19.85 | 0.69 |  |
| N.N.[Cl][Pt][Cl] [Cisplatin, (SP-4-2)-diamminedichloroplatinum(II)] | 0.04 |  |  | 4.91 |  | 9.89 |  | 15.96 | 5.34 |  |  |
